The test addresses human TXA2 receptor encoded by placenta cDNA clone HPL (SEQ ID NO: 1), expressed in COS-7 cells (Homo sapiens, UniProt P21731). The experiment in a line: [3H]S-145 saturation binding to membranes of transfected COS-7 cells. As to conditions: read-out: dissociation constant, Kd, saturable binding, 20 mM Na-Mes, pH 6.4, 5 mM EDTA, tested as the radiolabelled form, tested form: tritium-labelled (24 Ci/mmol), label pos.

Sequences of proteins named here, by UniProt entry; tags and fusion partners are left off. A change or cut given only in a name is not applied to a line headed by its entry.
UniProt P21731, whole entry: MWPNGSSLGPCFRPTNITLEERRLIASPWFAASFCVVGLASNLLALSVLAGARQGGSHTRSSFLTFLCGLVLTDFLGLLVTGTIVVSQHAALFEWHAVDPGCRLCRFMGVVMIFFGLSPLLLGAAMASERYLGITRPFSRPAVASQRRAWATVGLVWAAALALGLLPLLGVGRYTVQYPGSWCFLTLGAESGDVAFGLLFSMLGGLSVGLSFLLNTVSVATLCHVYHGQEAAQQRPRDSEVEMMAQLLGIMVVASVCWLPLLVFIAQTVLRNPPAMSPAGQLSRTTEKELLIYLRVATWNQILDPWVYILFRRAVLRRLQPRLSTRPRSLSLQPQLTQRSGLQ

Molecules are shown by their SMILES.

Consider `O=C(O)CCC/C=C\CC1C2CCC(C2)C1NS(=O)(=O)c1ccccc1` (stereo not shown), for which the Kd is 1.2 nM.

The values above are taken from EP0490410B1, “TXA2 Receptor and gene encoding the same” (SHIONOGI SEIYAKU KABUSHIKI KAISHA, priority 1990, dated 1992).
